# Data reported in EP4792886A2, “CNP PRODRUGS” (Ascendis Pharma Growth Disorders A/S, priority 2015, dated 2016).
# The chains behind the UniProt entries cited, without tags or fusion partners. Where a name states a change or a piece, a line headed by the entry shows the natural chain unless it says otherwise.
# UniProt P08473: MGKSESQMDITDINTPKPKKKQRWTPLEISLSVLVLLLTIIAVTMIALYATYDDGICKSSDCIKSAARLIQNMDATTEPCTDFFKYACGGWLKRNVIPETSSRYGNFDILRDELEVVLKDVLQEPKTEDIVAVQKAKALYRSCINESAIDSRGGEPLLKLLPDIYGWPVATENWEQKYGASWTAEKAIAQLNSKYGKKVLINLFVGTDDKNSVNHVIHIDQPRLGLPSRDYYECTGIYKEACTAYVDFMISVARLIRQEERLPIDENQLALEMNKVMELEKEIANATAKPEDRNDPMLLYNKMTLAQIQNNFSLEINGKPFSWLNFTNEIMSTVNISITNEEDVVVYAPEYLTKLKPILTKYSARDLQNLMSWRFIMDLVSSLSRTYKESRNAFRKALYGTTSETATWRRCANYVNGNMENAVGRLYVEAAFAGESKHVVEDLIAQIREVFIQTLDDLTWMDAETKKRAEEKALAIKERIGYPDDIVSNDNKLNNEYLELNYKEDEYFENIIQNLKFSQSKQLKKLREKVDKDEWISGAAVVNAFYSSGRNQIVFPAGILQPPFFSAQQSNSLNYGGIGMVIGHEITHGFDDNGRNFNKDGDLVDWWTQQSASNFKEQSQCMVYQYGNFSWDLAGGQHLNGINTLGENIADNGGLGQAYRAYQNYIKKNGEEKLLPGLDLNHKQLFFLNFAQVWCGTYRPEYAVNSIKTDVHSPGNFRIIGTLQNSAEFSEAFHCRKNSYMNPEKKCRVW
# Target: recombinant human NEP (Homo sapiens, UniProt P08473)
# Assay: Digest of CNP variants by Neutral Endopeptidase in vitro (NEP digest assay)
# Settings: NEP 2.5 µg/mL, 100 µg CNP equivalents/mL, 50 mM Tris-HCl pH 7.4, 10 mM NaCl, 37 °C, up to 4 days; normalized to mean CNP-34 ([…], footnote 1) or CNP-38 ([…], footnote 2) half life; stable analogs
# Excerpt: Samples were taken at different time intervals. […] The resulting reaction products were assigned using HPLC-MS.
substance,measurement,value
CNP-34,half life norm.,4.15 h
